# Results taken from EP4843994A1, “NOVEL PEPTIDE HAVING MUSCLE FORMATION-PROMOTING ACTIVITY, ANTI-OBESITY ACTIVITY AND ANTI-DIABETIC ACTIVITY AND USES THEREOF” (dated 2026).
# Assays:
# 3T3-L1 cells = assay: Expression of adipogenesis and lipolysis related proteins in insulin resistance-induced adipocytes (Western blot); settings: 3T3-L1 adipocytes, 350 µM oleic acid (insulin resistance environment), peptide 5 µM, 50 µM, 48 hours
# Method: 3T3-L1 cells (preadipocytes, American Type Culture Collection) were cultured in DMEM medium containing 2% BCS (Bovine Calf Serum) (Welgene, Korea). To differentiate 3T3-L1 cells into adipocytes, cells were seeded into 12-well culture plates at a concentration of 1 x 10^5 cells/well, and when the cells became confluent (Day=2), the medium was replaced once more and cultured for an additional 48 hours. After 48 hours (Day=0), the culture medium was replaced with DMEM medium containing 10% FBS, 1% P/S, 1 µg/ml insulin (Sigma, USA), 0.5 mM isobutylmethylxanthine (IBMX) (Sigma, USA), and 1 µM Dexamethasone (Sigma, USA), and cultured. After 2 days (Day=2), the medium was replaced with DMEM medium containing 10% FBS, 1% P/S, and 1 µg/ml insulin, and cultured. After 3 days (Day=5), the medium was replaced with one containing only 10% FBS and 1% P/S, and an insulin resistance environment was induced by treating with 350 µM oleic acid (Sigma, St. Louis, MO, USA) for 24 hours. After 24 hours of induction, the DMEM medium (10% FBS, 1% BSA) supplemented with 350 µM oleic acid (Sigma, St. Louis, MO, USA) and peptides (5 µM, 50 µM) were replaced, and the cells were cultured for 48 hours. After culture, lysis buffer was added to lyse the cells, and the proteins were obtained by centrifugation at 12,000 rpm and 4°C for 30 minutes. The obtained proteins were then quantified using a BCA kit. […]
# HepG2 cells = assay: Expression of insulin resistance and sensitivity related genes in hepatocytes (RT-PCR); settings: 500 µM oleic acid (insulin resistance environment), peptide 5 µM, 50 µM, 48 hours
# Method: HepG2 cells (human-derived hepatocytes) were cultured in DMEM medium containing 1% P/S and 10% FBS. When cell confluency reached approximately 70 to 80%, cells were seeded into a 12-well culture plate at a concentration of 2 x 10^5 cells/ml. Subsequently, when cell confluency in the 12-well culture plate reached approximately 70 to 80%, the medium was replaced with serum-free DMEM medium. After 4 hours, an insulin resistance environment was induced by replacing the medium with serum-free DMEM (1% BSA) supplemented with 500 µM oleic acid (Sigma, St. Louis, MO, USA). After induction for 24 hours, the cells were replaced with serum-free DMEM (1% BSA) supplemented with 500 µM oleic acid (Sigma, St. Louis, MO, USA) and peptides (5 µM, 50 µM), and cultured for 48 hours. After culture, cells were harvested and RNA was extracted using Trizol (Thermo Fisher Scientific, USA). The extracted RNA was synthesized to obtain DNA complementary to the RNA using TOPScript™ RT DryMIX (enzynomics, Korea), and then polymerase chain reaction (PCR) was performed on genes of markers related to insulin resistance and sensitivity using TOPsimple™ DryMIX-nTaq (enzynomics, Korea). Subsequently, the reaction products were run on a 1.5% agarose gel to compare the mRNA expression levels of the markers for each sample. The primer sequences for the genes used in the PCR are listed in Table 4 below, and the GAPDH gene was used as a control group.
# Through the above experiment, it was aimed to determine whether insulin sensitivity is induced by treating HepG2 cells, in which an insulin resistance environment was induced by oleic acid treatment, with peptides. Whether insulin sensitivity was induced was confirmed by analyzing the expression levels of factors related to insulin resistance or sensitivity using RT-PCR. As a result of the experiment, it was confirmed that treatment with oleic acid increased the expression levels of mTOR and P70S6K, which are factors related to insulin resistance, in HepG2 cells, but when the cells were treated with a peptide, the increased expression levels of mTOR and P70S6K decreased again in a concentration-dependent manner of the peptide. Additionally, it was confirmed that treatment with oleic acid decreased the expression levels of AKT, SIRT1, and AMPKα, which are factors related to insulin sensitivity, in HepG2 cells, but when the cells were treated with a peptide, the decreased expression levels of AKT, SIRT1, and AMPKα increased again (FIGS. 10A and 10B).
smiles,measurement,setting,value
C[C@@H](O)[C@H](NC(=O)CNC(=O)[C@@H](N)Cc1c[nH]cn1)C(=O)N[C@@H](Cc1ccc(O)cc1)C(=O)O,expression level of FAS protein,3T3-L1 cells,decreased again
same,expression level of PLIN protein,3T3-L1 cells,increased again
same,expression level of AKT (gene),HepG2 cells,increased again
same,expression level of AMPKα (gene),HepG2 cells,increased again
same,expression level of P70S6K (gene),HepG2 cells,decreased again in a concentration-dependent manner
same,expression level of SIRT1 (gene),HepG2 cells,increased again
same,expression level of mTOR (gene),HepG2 cells,decreased again in a concentration-dependent manner
